Legend:
Conditions in all cases: mouse, in vivo
[1] = test system: oxazolone-induced colitis
[2] = test system: NF-kB p65, TNF-α, IL-4, CD4, Foxp3
[3] = test system: oxazolone-induced colitis; remark: listed apart in the source

## Nc1ccc(O)c(C(=O)O)c1 [5-ASA, 5-aminosalicylic acid]
[1]
  histopathological severity score: but not 5-ASA treatment
  oxazolone-induced decrease in body weight: attenuated
  oxazolone-induced increase in colon weight: ameliorated
[2]
  colon expression of TNF-α, NF-kB, IL-4, CD4, Foxp3 by IHC: did not elicit any significant effect
[3]
  colon weight/length ratio: ameliorated
  oxazolone-induced body weight loss: significantly attenuated

Reference: patent US11160869B2 (priority 2019, dated 2021)
